The source of these data is PubChem BioAssay AID1347073 (National Center for Advancing Translational Sciences (NCATS), 2019).

The list shows a part of the results, in another mix than the full data. Results filed as inconclusive are left out. Active and inactive are the calls of the source. Calls follow the shape of the dose curve; as a rule, active = well fitted activation curve with a large enough effect; inconclusive = small, poorly fitted or top-dose-only effect; inactive = no such curve, though single readings can be large or run the other way.

The nature of the experiment: qHTS of TDP-43 Inhibitors: NCGC Sytravon Library Screen. Also: 0% is about no effect; nearly all actives have a fitted effect of over 55% in size. To be noted: yeast TDP-43 toxicity rescue, BacTiter-Glo growth, 24 h; at 46.1 µM (top of the series). From the text:
The goal of this project is to identify new chemical probes capable of reversing the toxicity associated with TDP-43 which is associated with frontotemporal lobar degeneration and amyotrophic lateral sclerosis. These compounds will provide a complementary approach to deciphering the tangled mechanisms of toxicity and protection that we have uncovered through genome-wide genetic screens and are beginning to uncover in a large-scale proteomics analysis with mass spectroscopy. To this end, a miniaturized assay was developed to be screened against the Molecular Libraries Small Molecule Repository (MLSMR) to discover TDP-43 inhibitors. Please note that in the set-up this yeast-based assay compounds that inhibit as TDP-43, have a read-out as activators. NIH Chemical Genomics Center [NCGC] NIH Molecular Libraries Probe Centers Network [MLPCN] Assay Submitter (PI): Susan Lindquist, Whitehead Institute/MIT MLPCN Grant: R21 NS060957
Dispense 2.5 microL yeast galactose medium per 1536-well plate, pin compound, dispense 2.5 microL TDP-43 expressing yeast in galactose medium at OD600=0.02 (pregrown in raffinose medium to mid-log phase) per well, incubate for 24 hr at 30 deg C, and cell growth will be measured using 5 microL of Bactiter/Glo reagent to entire plate and read using Luminescence Protocol in ViewLux.
A general note: qHTS replaces the single test concentration by a dilution series.
Regarding `CCOP(=O)(Nc1cccc2ccccc12)OCC`, the growth rescue (activation) was inactive: -2.3%.
To `Cc1cc(=O)[nH]c(N[N+](=O)[O-])n1` belongs inactive: -1.48%; to `O=P(Nc1ccccn1)(c1cccc2ccccc12)c1cccc2ccccc12`, inactive: 6.32%.
Turning to `Cc1ccc(NP(=O)(Oc2ccccc2)Oc2ccccc2)nc1`, the growth rescue (activation) is inactive: 10.7%.
Consider `O=[N+]([O-])c1ncn(CCn2ncnc2[N+](=O)[O-])n1`, for which the growth rescue (activation) was inactive: 7.36%.
For the compound `NC(=O)c1cc([N+](=O)[O-])cc([N+](=O)[O-])c1N`, the growth rescue (activation) was inactive: -1.17%.
To `O=c1c2cc([N+](=O)[O-])ccc2[nH]c2c([N+](=O)[O-])cc([N+](=O)[O-])cc12` belongs inactive: -94.7%.
As to `CC(=O)NC(SC(=S)N(CC(C)C)CC(C)C)C(Cl)(Cl)Cl` (stereo unspecified), the growth rescue (activation) was inactive: 4.66%.
Regarding `CCNC(=S)/N=C(\N)N[N+](=O)[O-]`, the growth rescue (activation) is inactive: 3.7%.
Consider `O=P(Nc1nc2ccccc2s1)(c1ccccc1)c1ccccc1`, for which the growth rescue (activation) was inactive: 24.6%.
In the case of `O=P(Nc1ccccn1)(c1ccc(Br)cc1)c1ccc(Br)cc1`, the growth rescue (activation) was inactive: -1.43%.
